# Yeast mating assay 2: variants of the scFv Ab-95

Source: Engelhart et al. 2022 (doi:10.1038/s41597-022-01779-4), MIT Lincoln Laboratory and A-Alpha Bio; data file from the FLAb repository.

Binding partner: SARS-CoV-2 spike HR2 peptide, sequence PDVDLGDISGINAS.

Ab-95 is the parent antibody, in scFv form: VH, then three GGGGS repeats, then VL. The heavy chain is unchanged in all variants.
VH: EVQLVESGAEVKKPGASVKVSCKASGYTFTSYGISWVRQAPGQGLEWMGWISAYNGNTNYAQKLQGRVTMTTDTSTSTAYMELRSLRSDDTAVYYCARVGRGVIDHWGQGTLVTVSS
VL: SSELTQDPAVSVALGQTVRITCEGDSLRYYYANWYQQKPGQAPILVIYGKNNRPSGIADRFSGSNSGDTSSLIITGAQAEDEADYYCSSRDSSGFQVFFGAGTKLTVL

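In library AAYL52, one, two or three CDR residues were substituted; doubles and triples were drawn at random. The scFvs were displayed on barcoded MATa yeast, the peptide on MATalpha yeast. Mating (16 h, 30 °C) was followed by selection of diploids and sequencing of their barcodes. Read counts were normalised to the haploid input and turned into Kd by a linear fit to BCL2-family pairs of known affinity, for each replicate. There are three technical replicates.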

The parent's light chain CDRs are EGDSLRYYYAN, GKNNRPS, SSRDSSGFQVF; each variant's own CDRs replace them letter for letter.
Values are log10 of the apparent Kd in nM; lower means stronger binding.
A pair that was not seen in that replicate is written "ND"; this usually means weak binding, but a binder can also be missed.
Three control strains display no target. For library AAYL52, 28% of the pairings with them gave a signal, with a median of 3.91 and one signal in twenty below 2.90, so weak values seen in few replicates may be background. For each scFv, signals with the empty controls are counted beside the result, with their mean in brackets.
Parent in this assay: reference entry 2.31, copy in this library 2.25.

CDR-L1,CDR-L2,CDR-L3,"log10 Kd, replicates",signal with controls
EGYSLRYYYAN,GKNNRPS,DSRDSSGFQVN,ND ND ND,0 of 9
EGDSLRYYYAN,GKNTRPS,QRRDSSGFQVF,2.41 2.41 3.11,2 of 9 (4.05)
EGDSLRYNYAN,GKNNRPS,SSRDSMGFQNF,1.50 1.98 1.59,0 of 9
EGDSLRYYYAN,GKFNRPS,SSRNSSGFLVF,ND 4.13 ND,1 of 9 (4.44)
EGDSLRYYYAN,GKNNRLS,ISRDSPGFQVF,3.75 5.47 ND,5 of 9 (4.21)
EGDSLRYYYAN,GKNNLPC,SSRDHSGFQVF,3.73 3.73 3.23,1 of 9 (3.06)
KGDSLRYYYAN,GKNIRPS,SSRDSSGFQVF,1.61 1.57 1.31,3 of 9 (3.81)
EGDSLRYMYAN,GKSNRPS,SSRDSSGFQPF,3.18 2.81 1.76,0 of 9
EGDSLRYYGWN,GKNSRPS,SSRDSSGFQVF,2.43 2.56 2.31,5 of 9 (4.47)
EGDSSRYYYVN,GKNNRPS,SSRHSSGFQVF,ND 4.68 ND,3 of 9 (4.42)
EGISLRYQYAR,GKNNRPS,SSRDSSGFQVF,2.42 2.55 2.73,3 of 9 (4.18)
LGDSLRPYYAN,GKNNRPS,SSRDSSGFQMF,2.64 2.73 2.71,3 of 9 (3.85)
EGDSLRYYAAN,GKNNRPS,SSRDWSGFQDF,1.66 1.63 1.43,1 of 9 (3.37)
EGDNLRYYYAN,GKNMRPS,SSRWSSGFQVF,2.93 3.51 3.55,5 of 9 (4.11)
EGDSLRYWYAN,GKINRPS,SSRDSYGFQVF,ND 4.81 ND,2 of 9 (4.19)
EGDSLRYYYAN,GKNNRPS,SSRRSSFFVVF,ND ND ND,1 of 9 (4.30)
EGDSLTYYWAN,GKYNRPS,SSRDSSGFQVF,4.54 4.21 4.01,6 of 9 (4.54)
EGDSYRWYYAN,GKNNRPS,SSRFSSGFQVF,3.54 ND ND,1 of 9 (3.97)
EGDCLRYYYRN,GKNNRPS,SSRSSSGFQVF,ND 4.38 ND,2 of 9 (3.31)
EGDSMRYYYAN,GKNNRPS,SARDSSGFQVF,2.93 2.12 2.24,1 of 9 (3.60)
EGDSLRYYYAN,GKNNRPS,HSRDSYGFQHF,3.40 3.49 4.03,1 of 9 (3.97)
EGDSYRFYYAN,GKNNRPS,SSRDSSGFQVF,3.16 3.56 ND,4 of 9 (3.80)
EGSSLNYYYAN,FKNNRPS,SSRDSSGFQVF,ND ND ND,5 of 9 (3.81)
EGDSLRYFYAN,GKNLRPS,SSRDSSGSQVF,3.13 2.71 2.68,4 of 9 (3.93)
EGDSLRYYYAN,GKNNRPT,SSRYSSGFQVF,2.41 2.76 3.13,0 of 9
ETDSLRYYYAN,GKNNRPY,SSRDSSGTQVF,3.65 3.31 2.22,2 of 9 (3.47)
EGDSLRYYYAS,GKNIRCS,SSRDSSGFQVF,5.21 ND ND,1 of 9 (3.55)
EGDVLRYYHAN,GKNNRPS,SSRDSSGWQVF,3.58 3.40 3.61,5 of 9 (4.84)
EGDSLRCYYAN,WKNNIPS,SSRDSSGFQVF,2.85 3.40 ND,3 of 9 (3.40)
WGDSLRYYYAN,GKNNRPS,QCRDSSGFQVF,2.68 2.63 2.95,2 of 9 (3.54)
SGDSLRYYYAN,GKNNRPQ,SSRDPSGFQVF,1.94 1.89 1.74,1 of 9 (5.27)
EGDSLRYYYDF,GKNNRPS,SSRDSSGFQWF,ND ND ND,1 of 9 (4.07)
EKDTLRYYYAN,GKNNRPS,SCRDSSGFQVF,3.72 ND ND,1 of 9 (3.58)
EGDSLRYYYAN,GKNCRPS,SSYDSSGFQVW,1.86 1.81 2.22,5 of 9 (3.73)

Repeated from above, the 2 best binders with a signal in all replicates:

CDR-L1,CDR-L2,CDR-L3,"log10 Kd, replicates",signal with controls
KGDSLRYYYAN,GKNIRPS,SSRDSSGFQVF,1.61 1.57 1.31,3 of 9 (3.81)
EGDSLRYYAAN,GKNNRPS,SSRDWSGFQDF,1.66 1.63 1.43,1 of 9 (3.37)